We go through one compound from PMC6838151, “New diphenylphosphane derivatives of ketoconazole are promising antifungal agents” (Scientific Reports, 2019).

One data set has as its system C. albicans B4. The data set is classed as cell-based, Candida albicans. To be noted: B4 vs B3.
In the next data set the test system is murine bone marrow cells. On the set-up: method as in PMID 19967519. The following applies: murine vs human bone marrow cells; cited from earlier work.
The subject of data set [1] is hASCs (p53, p21, BAX, BCL-2 transcripts). In words: Apoptosis-related transcripts by qRT-PCR in hASCs. The class given is cell-based, human. The following applies: 20 µM, 24 h, vs control, differences not significant. Here is the method: Cellular apoptosis level was assessed using quantitative reverse transcriptase real-time polymerase chain reaction (qRT-PCR). First, the cells were seeded in a 24-well plate at a concentration of 3 × 10^4 cells/well in DMEM with Nutrient F-12 Ham complete medium and left in the CO2 incubator overnight to allow cells to attach. The compounds (Ke, KeP and KeOP) were diluted in the fresh complete medium to a final concentration of 20 μM. After 24 h of challenge with the compounds, the cells were homogenized with TRI Reagent and total RNA was isolated by phenol-chloroform extraction and ethanol precipitation. RNA purity and quantity were measured at a wavelength of 260 and 280 nm (Epoch, Biotek). […] The expression levels of p53 tumor suppressor, cyclin dependent kinase inhibitor 1A (p21), apoptosis regulators BAX and BCL-2 were determined. qRT-PCR was performed on a CFX Connect^TM Real-Time PCR Detection System (Bio-Rad) using SensiFast SYBR & Fluorescein Kit (Bioline, Cincinnati, OH, USA) and primer pairs as listed in Table S4 in ESI. […] The quantitative expression of the genes was calculated by the 2^−ΔΔCT method using GAPDH as housekeeping genes.
Statistical analysis was performed with GraphPad Prism 5 software (San Diego, USA). All data values are presented as mean ± SD, measured in triplicates or more. […]

For `CC(=O)N1CCN(c2ccc(OCC3COC(Cn4ccnc4)(c4ccc(Cl)cc4Cl)O3)cc2)CC1` (stereo not shown) [Ke, ketoconazole], the “times higher resistance of B4 than B3” value in the data set with C. albicans B4 is recorded as “eight”. The “IC50 fold higher for murine bone marrow cells in comparison to the human cells” value in the data set with murine bone marrow cells was about 3 fold. In addition, in data set [1], the “relative expression level of BAX” value is recorded as “higher” and the “relative expression level of BCL-2” value was “higher”.
